PMC6201930, “The minor gentamicin complex component, X2, is a potent premature stop codon readthrough molecule with therapeutic potential” (PLoS ONE, 2018)

System: zebrafish neuromasts (hair cells)
Details: in vivo

gentamicin
Neuromast (CC50): 2800 ± 1200 nM
